The chains behind the UniProt entries cited, without tags or fusion partners. Residues count along the entry.
UniProt P30536, 2-169: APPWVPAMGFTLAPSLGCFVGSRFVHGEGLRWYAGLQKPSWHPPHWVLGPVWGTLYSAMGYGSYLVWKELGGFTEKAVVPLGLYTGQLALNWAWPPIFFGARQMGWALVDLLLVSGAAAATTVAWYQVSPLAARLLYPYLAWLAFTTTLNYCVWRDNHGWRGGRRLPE
UniProt P30536, whole entry: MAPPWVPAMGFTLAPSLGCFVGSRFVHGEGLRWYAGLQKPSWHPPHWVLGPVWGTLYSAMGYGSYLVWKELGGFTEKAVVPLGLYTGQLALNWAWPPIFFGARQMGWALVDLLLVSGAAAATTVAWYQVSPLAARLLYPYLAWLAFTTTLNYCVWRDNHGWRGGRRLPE

In article PMC8049364, “Quantification of Macrophage-Driven Inflammation During Myocardial Infarction with ^18F-LW223, a Novel TSPO Radiotracer with Binding Independent of the rs6971 Human Polymorphism” (Journal of Nuclear Medicine, 2021):

What was measured:
TSPO [1] = target: T1, TSPO (Homo sapiens, UniProt P30536); assay: In vitro competition binding assay with ^3H-PK11195 in human heart homogenates (HAB, MAB, LAB); settings: read-out: mean Ki
Description: (§1) All studies using human tissue were conducted in accordance with the National Health Service Research Ethics Committee South East Scotland (Edinburgh Brain and Tissue Bank, 16/ES/0084). Supplemental Table 1 contains the Brain Bank Network reference number for all tissues used from the Edinburgh Brain and Tissue Bank. […] Samples were homogenized in ×10 w/v buffer (50 mM Tris-Base, pH 7.4, 4°C) before centrifugation (32,000g, 10 min, 4°C). Tissue pellets were then resuspended in ×10 w/v buffer and centrifuged again before resuspending in 2 mL of buffer. Samples were assessed for protein concentration using the Bio-Rad protein assay, aliquoted, and stored at −80°C until use. The competition binding assay protocol was adjusted from a previously reported protocol ([16]), as detailed within the supplemental materials.
(§2) In Vitro Human Competition Binding Assays
(§3) Briefly, 250 µg protein/mL in 200 µl of buffer was added to 100 µl of 1 nM 3H- […]
(§4) Aldrich, USA), PBR28 (ABX, Germany), AB5186 or LW223 at 14 different concentrations (0.001-3000 nM) for 90 min at 4 °C. […] Filter paper was then removed, placed into 2.5 mL of Optiphase HiSafe 3 (Perkin Elmer, USA) and counted 48 hours later on a Hidex 300 SL (Hidex, Finland). […]
(§5) saturation binding results, Sup.Fig.2) was used to determine the best fitting model and to calculate LAB:HAB ratios. Affinity values (Ki) were calculated by fitting individual tissue

TSPO [2] = target: T1, TSPO; assay: In vitro competition binding assay with ^3H-PK11195 in human brain homogenates (HAB, MAB, LAB)
Description: as §1, §2, §3, §4, §5

TSPO [3] = target: T1, TSPO; assay: biochemical
Description: as §1, §2, §3, §4
saturation binding results, Sup.Fig.2) was used to determine the best fitting model and to calculate LAB:HAB ratios. Affinity values (Ki) were calculated by fitting individual tissue […]

For `CCC(C)N(C)C(=O)c1cc2ccccc2c(-c2ccccc2Cl)n1` (stereo not drawn) [PK11195, 1-(2-chlorophenyl)-N-methyl-N-(1-methylpropyl)-3-isoquinolinecarboxamide, reference compound], the Ki (TSPO [1]) was 1.7 nM, the “Effect of rs6971 genetic polymorphism on Ki” value (TSPO [2]) was “unaffected” and the Kd (TSPO [3]) was 14 nM.
